Inhibition data for 29 molecules are collected here from PubChem BioAssay AID1486 (The Scripps Research Institute Molecular Screening Center, 2009).

This is a selection; strong and weak results do not stand in their true shares. Calls of active or inactive are those of the source.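 How the source made its calls: active means inhibition above a per-campaign cutoff, the mean inhibition of all tested compounds plus 3 SD (cut at about 27% in these data); inactive means the rest.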

A short description of the experiment: growth loss in parental Ba/F3 cells – cell-based, murine pro-B, CellTiter-Glo luminescence, counter-screen for JAK2V617F inhibitor project (AID 1486).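 Further: 0% = DMSO wells and 100% = JAK Inhibitor I control wells.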 As to conditions: Ba/F3 parental viability, CellTiter-Glo ATP luminescence; at 5.6 µM; stronger effect = higher value. Background: ATP-based viability assays read luminescence as a measure of living cells.
Broadly, the inhibition is the change of the read-out against control, counted positive when it falls. Take `CN(C)c1ccc(C(=O)NCC2(N3CCCCC3)CCCCC2)cc1`: the inhibition is inactive: 1.15%.

As for `CCN1CCC(Nc2cccc(F)c2)CC1`, the inhibition is inactive: 6.65%.

`CCCOc1ccc(C)cc1CN(CCCl)CCCl`: the inhibition was inactive: -2.92%.

With `COc1cc(OC)cc(C(=O)NCC2(N3CCOCC3)CCCCC2)c1`, the inhibition is inactive: 2.81%.

`CCC(CO)(C(=O)OC1CN2CCC1CC2)c1ccccc1` (centres undefined): the inhibition was inactive: 3.7%.

For `CC(C)(C)OC(=O)N1CCC(Nc2ccccc2)CC1`, the inhibition was inactive: 4.94%.

As for `CCOc1ncccc1C(=O)NCC1(N2CCOCC2)CCCCC1`, the inhibition was inactive: 1.72%.

For the molecule `O=C(OC1CN2CCC1CC2)C1c2ccccc2C=Cc2ccccc21` (centres undefined), the inhibition is inactive: 0.75%.

On to `N/C(=N\O)c1c(N)no[n+]1[O-]`, for which the inhibition was inactive: 4.16%.

For the molecule `COc1ccc(C(=O)NCC2(N3CCOCC3)CCCCC2)cc1OC`, the inhibition was inactive: 7.11%.

As for `c1ccc(CN2CCC(Nc3ccccc3)CC2)cc1`, the inhibition was inactive: 4.47%.

As for `N#Cc1ccc(C(=O)NCC2(N3CCCCC3)CCCCC2)cc1`, the inhibition was inactive: 10.5%.

As for `O=C(NCC1(N2CCOCC2)CCCCC1)c1cc(=O)[nH]c2ccccc12`, the inhibition was inactive: 4.01%.

With `CN1CCN(CCOC(=O)C(O)(c2ccccc2)c2ccccc2)CC1`, the inhibition is inactive: 6.5%.

With `COc1ccc(NC2CCN(C(=O)OC(C)(C)C)CC2)cc1`, the inhibition is inactive: -1.85%.

Take `N#CC1(Nc2ccccc2)CCN(CCc2ccccc2)CC1`: the inhibition is inactive: -6.41%.

For the molecule `O=C(NCC1(N2CCCCC2)CCCCC1)c1cccc([N+](=O)[O-])c1`, the inhibition was inactive: 5.35%.

Regarding `CN1CCC(Nc2cccc(F)c2)CC1`, the inhibition was inactive: 0.29%.

Turning to `CC(C)c1ccc(NC2CCN(C(=O)OC(C)(C)C)CC2)cc1`, the inhibition was inactive: 0.72%.

As to `CN(C)c1cccc(C(=O)NCC2(N3CCCCC3)CCCCC2)c1`, the inhibition is inactive: -0.71%.

For the molecule `COc1ccc(CN(CCCl)CCCl)cc1Cl`, the inhibition was inactive: -1.74%.

On to `O=C(OC1CN2CCC1CC2)C1c2ccccc2Oc2ccccc21` (centres undefined), for which the inhibition was inactive: 2.68%.

As for `N#CC1(Nc2ccccc2)CCN(Cc2ccccc2)CC1`, the inhibition is inactive: 2.6%.

Take `CCOC(=O)N1CCC(Nc2ccc(OC)cc2)CC1`: the inhibition was inactive: 5.49%.

`O=C(NCC1(N2CCOCC2)CCCCC1)c1cc2ccccc2o1`: the inhibition was inactive: 3.28%.

With `COc1ccc(C(=O)NCC2(N3CCCCC3)CCCCC2)c(OC)c1OC`, the inhibition is inactive: -1.97%.

`Cc1ccc(OCC(C)C)c(CN(CCCl)CCCl)c1`: the inhibition is inactive: -0.9%.

With `COc1ccc(NC2CCN(CCc3ccccc3)CC2)c(OC)c1`, the inhibition is inactive: 3.44%.

Regarding `CCOc1ccc(C)cc1CN(CCCl)CCCl`, the inhibition is inactive: -2.34%.
